Earlier results, collected in US6444700B1, “Product and method to reduce stress induced immune suppression” (Abbott Laboratories, priority 1998, dated 2002).

Conditions: animal toxicity studies

Q: For fructooligosaccharides [FOS], which “toxicity, mutagenicity or carcinogenic effects” value is on record?
A: no evidence of toxicity, mutagenicity or carcinogenic effects
